By UniProt entry, the sequences of proteins in these tests, tags left out.
UniProt P05177, whole entry: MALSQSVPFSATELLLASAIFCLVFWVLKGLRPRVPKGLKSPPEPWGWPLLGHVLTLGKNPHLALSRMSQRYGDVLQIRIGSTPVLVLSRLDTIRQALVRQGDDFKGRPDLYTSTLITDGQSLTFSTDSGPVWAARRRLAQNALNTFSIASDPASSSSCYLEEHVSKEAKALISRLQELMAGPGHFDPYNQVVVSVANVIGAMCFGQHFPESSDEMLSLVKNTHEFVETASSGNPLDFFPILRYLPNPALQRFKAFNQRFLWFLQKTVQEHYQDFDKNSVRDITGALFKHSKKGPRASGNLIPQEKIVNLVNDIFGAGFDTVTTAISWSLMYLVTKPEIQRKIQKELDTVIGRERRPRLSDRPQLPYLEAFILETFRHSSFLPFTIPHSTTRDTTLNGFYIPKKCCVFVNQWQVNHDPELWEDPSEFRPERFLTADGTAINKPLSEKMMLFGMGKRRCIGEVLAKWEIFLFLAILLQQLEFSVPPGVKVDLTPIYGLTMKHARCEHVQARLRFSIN

According to patent publication US20230016424A1, “HYBRID AMIDE DERIVATIVES OF AMPHOTERICIN B” (The Board of Trustees of the University of Illinois, priority 2019, published 2023):

Biological target: T1, CYP1A2 (Homo sapiens, UniProt P05177)
T1 construct: 158 ul of human liver microsome (HLM) was added to all the wells; from tissue; host or cells: human liver microsomes
Test: CYP Inhibition
Format: in vitro ADME
Settings: 3 μM

O=c1cc(-c2ccccc2)oc2c1ccc1ccccc12 [α-Naphthoflavone, reference compound]
P450 1A2 % Inhibition, positive control: 92.7%
